Test results from patent publication US20250243243A1, “DISRUPTION OF SONIC HEDGEHOG-SURF4 INTERACTION FOR CANCER TREATMENT” (The Hong Kong University of Science and Technology, priority 2022, published 2025).

How the values were obtained:
ShhN^1-198-HA (mouse) [1] = molecular target: ShhN^1-198-HA (mouse) (UniProt Q62226); assay: anti-HA immunoprecipitation from HEK293T lysate, label-free quantitative mass spectrometry; ratio of the ShhN-HA group to the IGF2-HA group
ShhN^1-198-HA (mouse) [2] = molecular target: ShhN^1-198-HA (mouse) (UniProt Q62226); assay: anti-HA immunoprecipitation from HEK293T lysate, label-free quantitative mass spectrometry; 2 unique peptides; untransfected Control Group printed 156239.4744
IGF2-HA (human) = IGF2-HA (human) (UniProt P01344); assay: as above

Abundance Ratio ShhN:IGF2 (ShhN^1-198-HA (mouse) [1]): 4.79 | abundance in The ShhN Group (ShhN^1-198-HA (mouse) [2]): 293000 | abundance in The IGF2 Group (IGF2-HA (human)): 61200
Substance: RPS15A (from UniProt P62244)
